The source of these data is patent publication US6780871B2, “Methods and compositions for treating addiction disorders” (Albany Medical College, priority 2001, dated 2004).

Amino acid sequences for entries named in this document (tags omitted). Residues count along the entry.
UniProt P04757, 26-499: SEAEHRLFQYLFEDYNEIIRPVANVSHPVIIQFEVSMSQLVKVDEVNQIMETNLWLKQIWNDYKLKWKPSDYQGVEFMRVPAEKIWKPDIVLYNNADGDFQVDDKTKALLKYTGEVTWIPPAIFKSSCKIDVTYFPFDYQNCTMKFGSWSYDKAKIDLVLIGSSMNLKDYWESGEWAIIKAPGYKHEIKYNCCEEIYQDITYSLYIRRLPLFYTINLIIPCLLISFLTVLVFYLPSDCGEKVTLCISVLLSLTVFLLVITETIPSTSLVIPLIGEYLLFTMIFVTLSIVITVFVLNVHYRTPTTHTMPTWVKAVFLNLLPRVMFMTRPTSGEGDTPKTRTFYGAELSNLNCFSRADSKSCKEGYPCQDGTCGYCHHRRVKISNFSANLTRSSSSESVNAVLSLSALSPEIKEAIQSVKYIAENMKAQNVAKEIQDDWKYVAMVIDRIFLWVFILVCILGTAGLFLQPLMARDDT
UniProt P12392, 21-495: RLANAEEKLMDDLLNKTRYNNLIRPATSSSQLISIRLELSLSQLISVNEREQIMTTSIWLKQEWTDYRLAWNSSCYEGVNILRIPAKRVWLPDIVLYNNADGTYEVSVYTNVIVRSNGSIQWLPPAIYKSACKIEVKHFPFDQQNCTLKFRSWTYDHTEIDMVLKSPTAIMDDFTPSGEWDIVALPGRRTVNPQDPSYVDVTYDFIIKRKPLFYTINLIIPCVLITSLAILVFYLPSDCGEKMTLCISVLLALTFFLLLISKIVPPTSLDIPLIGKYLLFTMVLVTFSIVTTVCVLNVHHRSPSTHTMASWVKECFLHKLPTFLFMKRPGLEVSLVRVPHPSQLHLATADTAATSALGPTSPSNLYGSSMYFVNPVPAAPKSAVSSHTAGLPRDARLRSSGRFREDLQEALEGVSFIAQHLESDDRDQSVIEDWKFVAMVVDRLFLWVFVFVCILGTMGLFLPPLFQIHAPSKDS
UniProt P09483, 31-630: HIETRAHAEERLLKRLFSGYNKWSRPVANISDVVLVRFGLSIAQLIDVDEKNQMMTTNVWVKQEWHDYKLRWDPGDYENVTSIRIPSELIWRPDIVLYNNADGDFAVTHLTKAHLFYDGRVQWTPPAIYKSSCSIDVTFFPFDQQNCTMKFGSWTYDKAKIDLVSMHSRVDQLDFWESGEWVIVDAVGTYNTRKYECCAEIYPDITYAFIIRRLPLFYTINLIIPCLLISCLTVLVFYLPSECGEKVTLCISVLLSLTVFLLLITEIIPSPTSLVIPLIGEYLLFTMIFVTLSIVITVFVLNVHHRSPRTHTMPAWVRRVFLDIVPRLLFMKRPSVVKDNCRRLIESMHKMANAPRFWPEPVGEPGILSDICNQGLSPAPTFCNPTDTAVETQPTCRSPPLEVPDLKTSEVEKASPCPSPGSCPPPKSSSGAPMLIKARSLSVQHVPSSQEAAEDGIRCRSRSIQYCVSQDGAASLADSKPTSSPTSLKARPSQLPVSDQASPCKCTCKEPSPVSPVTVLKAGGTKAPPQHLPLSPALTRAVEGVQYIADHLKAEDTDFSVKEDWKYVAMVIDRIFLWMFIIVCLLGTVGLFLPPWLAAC
UniProt P12390, 25-500: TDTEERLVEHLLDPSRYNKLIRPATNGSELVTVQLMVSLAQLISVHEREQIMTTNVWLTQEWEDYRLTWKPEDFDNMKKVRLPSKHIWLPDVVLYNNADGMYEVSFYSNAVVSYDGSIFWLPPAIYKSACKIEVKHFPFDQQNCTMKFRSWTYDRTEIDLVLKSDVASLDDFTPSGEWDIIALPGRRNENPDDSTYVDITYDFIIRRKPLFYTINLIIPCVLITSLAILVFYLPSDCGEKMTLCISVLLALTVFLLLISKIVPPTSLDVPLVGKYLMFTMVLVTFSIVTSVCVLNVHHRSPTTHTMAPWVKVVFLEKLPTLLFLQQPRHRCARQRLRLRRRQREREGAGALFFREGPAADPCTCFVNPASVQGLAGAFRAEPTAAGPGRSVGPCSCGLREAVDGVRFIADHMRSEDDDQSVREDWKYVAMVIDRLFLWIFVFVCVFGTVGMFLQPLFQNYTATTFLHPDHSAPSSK
UniProt P23979, 24-489: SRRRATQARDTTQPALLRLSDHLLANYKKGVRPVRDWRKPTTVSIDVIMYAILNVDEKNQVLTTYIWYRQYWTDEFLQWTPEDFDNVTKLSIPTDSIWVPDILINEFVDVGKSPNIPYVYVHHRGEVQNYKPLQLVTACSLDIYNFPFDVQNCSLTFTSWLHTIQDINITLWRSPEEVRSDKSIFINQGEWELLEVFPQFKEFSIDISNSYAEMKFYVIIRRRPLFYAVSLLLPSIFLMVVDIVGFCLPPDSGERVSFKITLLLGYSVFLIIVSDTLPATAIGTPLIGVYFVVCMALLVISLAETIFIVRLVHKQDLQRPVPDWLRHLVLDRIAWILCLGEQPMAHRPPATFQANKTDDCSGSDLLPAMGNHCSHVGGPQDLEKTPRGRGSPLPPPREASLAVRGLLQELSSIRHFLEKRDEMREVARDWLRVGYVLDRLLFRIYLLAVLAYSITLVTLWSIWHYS

What all share (type): cell-based
One experiment concerns the target T1, α3β4 nACh receptors (Rattus norvegicus, UniProt P04757+P12392).
T1 construct: expressed in transfected cells; host or cells: HEK293 (ATCC CRL1573), transient transfection
Briefly: whole-cell patch-clamp of transfected HEK293 cells, ganglionic α3β4 nACh receptors, 1 mM ACh. The protocol: (§1) Human embryonic kidney 293 (HEK293) fibroblasts (ATCC CRL1573) were cultured in minimal essential medium supplemented with 10% fetal bovine serum and 2 mM glutamine (Life Technologies, Rockville, Md.). Cells were plated on poly-D-lysine-coated 35 mm nunc dishes, transfected by the LipofectaminePLUS method (Life Technologies), and examined functionally between 18-48 h post transfection. […] Whole-cell capacitance and series resistance were recorded and adequately compensated using the available circuitry of the amplifier. […] Rapid switching between inputs was achieved using a set of upstream solenoid valves (Lee Co., Westbrook, Conn.) under computer control; the solution exchange rate was ˜5 ms as measured from liquid junction currents.
(§2) Transfected HEK293 cells expressing various receptor subunit cDNAs were examined by whole-cell patch-clamp recording with fast perfusion of agonist and drug solutions. […] In FIG. 1A, open bars depict the timing of ACh application; filled bars depict the timing of co-application of 20 μM IBO or 20 μM 18MC; and inhibition was measured relative to control at the end of the drug application (indicated by arrows). […]

In another experiment the target is T2, nACh receptors (Rattus norvegicus, UniProt P09483+P12390).
T2 construct: expressed in transfected cells; host or cells: HEK293 (ATCC CRL1573), transient transfection
Briefly: whole-cell patch-clamp of transfected HEK293 cells, neuronal nACh receptors, 300 μM ACh. To be noted: read-out: IC50 suggested by the inhibition data, estimated from 5 and 20 μM data. As for the experimental part:
as §1, §2

The next experiment has as its target T3, 5-HT3A receptors (Mus musculus, UniProt P23979).
T3 construct: expressed in transfected cells; host or cells: HEK293 (ATCC CRL1573), transient transfection
Description: whole-cell patch-clamp of transfected HEK293 cells, 5-HT3A, 100 μM serotonin. To be noted: read-out: IC50 at 5-HT3 receptors; approximate, from 20 μM data. The protocol: as §1
Transfected HEK293 cells expressing 5-HT3A receptors were voltage-clamped to −70 mV and stimulated with 100 μM serotonin at 30 s intervals. […] This is shown in FIG. 4, where open bars depict the timing of agonist application, filled bars depict the timing of co-application of 20 μM IBO or 20 μM 18MC, and inhibition was measured relative to control at the end of the drug application (indicated by arrows).
(In general: Patch clamp records ionic current or voltage across a cell membrane.)

Like-named read-outs stand apart in the source and are kept apart here.

ibogaine: the IC50 on α3β4 nACh receptors (read-out: IC50, inhibition of ACh-evoked whole-cell currents, -70 mV, HEK293, FIG. 1B, 3-14 cells per point) is 220 nM; on α3β4 nACh receptors (read-out: IC50, inhibition of ACh-evoked whole-cell currents, -70 mV, HEK293, FIG. 1B, 3-14 cells per point, listed as IBO) it was 750 nM; at nACh receptors, 1000 to 5000 nM; at 5-HT3A receptors it was roughly 20000 nM.

The IC50 is the concentration at which inhibition is half-maximal.
